# In paper PMC12138688, “Identification of Orthosteric GABAB Receptor Ligands by Virtual Screening and In Vitro Validation” (ACS Omega, 2025):
# Sequences of proteins named here, by UniProt entry; tags and fusion partners are left off. Residues count along the entry.
# UniProt Q9UBS5, 15-961 limits assumed: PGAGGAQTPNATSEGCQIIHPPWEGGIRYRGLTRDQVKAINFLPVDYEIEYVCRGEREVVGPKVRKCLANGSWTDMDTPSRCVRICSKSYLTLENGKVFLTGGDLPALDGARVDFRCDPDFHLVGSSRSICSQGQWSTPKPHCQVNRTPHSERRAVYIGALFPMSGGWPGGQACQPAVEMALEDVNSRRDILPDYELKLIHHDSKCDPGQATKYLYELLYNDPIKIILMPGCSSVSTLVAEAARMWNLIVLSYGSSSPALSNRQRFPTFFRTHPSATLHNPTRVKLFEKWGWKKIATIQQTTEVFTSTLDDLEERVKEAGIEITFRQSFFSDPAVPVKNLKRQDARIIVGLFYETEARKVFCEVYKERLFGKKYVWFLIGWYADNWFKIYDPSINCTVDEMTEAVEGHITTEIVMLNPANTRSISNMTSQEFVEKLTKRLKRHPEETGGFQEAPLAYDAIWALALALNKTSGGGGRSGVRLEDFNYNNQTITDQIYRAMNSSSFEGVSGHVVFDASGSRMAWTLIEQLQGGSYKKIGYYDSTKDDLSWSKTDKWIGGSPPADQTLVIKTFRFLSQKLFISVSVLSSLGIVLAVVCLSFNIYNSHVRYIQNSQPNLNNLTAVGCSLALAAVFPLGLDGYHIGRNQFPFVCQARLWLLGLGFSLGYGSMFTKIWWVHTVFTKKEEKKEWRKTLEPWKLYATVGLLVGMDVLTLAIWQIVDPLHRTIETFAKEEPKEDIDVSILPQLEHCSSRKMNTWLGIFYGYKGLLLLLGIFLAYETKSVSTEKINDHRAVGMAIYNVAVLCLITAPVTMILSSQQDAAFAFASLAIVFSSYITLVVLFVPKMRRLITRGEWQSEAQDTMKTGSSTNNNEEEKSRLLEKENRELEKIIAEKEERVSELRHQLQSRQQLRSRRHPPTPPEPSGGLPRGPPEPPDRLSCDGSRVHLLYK
# Molecular target: T1, human GABAB-R (Homo sapiens, UniProt Q9UBS5)
# T1 construct: purchased Eurofins 2150335; host or cells: Chem-1 cells
# Assay: [3H]CGP54626 radioligand competition binding assay
substance,measurement,value
CGP54626,IC50,20 nM
same,Ki,4.5 nM
